ChEMBL document CHEMBL6134860, “Discovery and optimization of a novel carboxamide scaffold with selective antimalarial activity” (Eur J Med Chem, 2025)

Tested on: Plasmodium falciparum
Experiment: Antiplasmodial activity against Plasmodium falciparum strain NF54 assessed as 99% parasite clearance time in presence of 2% haematocrit and 0.5 % parasitemia at 10 times EC50 followed by media with compound exchanged daily measured after 2 weeks by standard hypoxanthine assay
Format: functional

CCN(CC)CCCC(C)Nc1ccnc2cc(Cl)ccc12 (stereo unspecified) [CHLOROQUINE] showed a Time of 66.1 h.
